Results: ChEMBL document CHEMBL4196023, “Cyclic peptide inhibitors of lysine-specific demethylase 1 with improved potency identified by alanine scanning mutagenesis” (Eur J Med Chem, 2018)

Protein sequences, listed by entry. Tags and fused reporters are not part of them.
UniProt Q9UKL0, whole entry, looked up: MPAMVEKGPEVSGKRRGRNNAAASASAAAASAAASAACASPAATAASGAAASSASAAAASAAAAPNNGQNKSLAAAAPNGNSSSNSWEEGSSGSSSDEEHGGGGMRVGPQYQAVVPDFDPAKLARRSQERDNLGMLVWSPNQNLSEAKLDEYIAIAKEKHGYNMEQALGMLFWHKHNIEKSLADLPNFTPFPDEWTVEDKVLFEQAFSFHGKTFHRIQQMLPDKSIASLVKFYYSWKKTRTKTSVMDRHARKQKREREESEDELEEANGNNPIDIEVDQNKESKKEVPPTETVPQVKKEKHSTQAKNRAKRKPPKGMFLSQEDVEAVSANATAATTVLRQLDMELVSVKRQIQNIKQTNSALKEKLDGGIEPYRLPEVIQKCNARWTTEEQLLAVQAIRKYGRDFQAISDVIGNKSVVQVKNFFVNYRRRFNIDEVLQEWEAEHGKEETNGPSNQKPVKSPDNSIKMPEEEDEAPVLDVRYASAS
UniProt P27338, whole entry: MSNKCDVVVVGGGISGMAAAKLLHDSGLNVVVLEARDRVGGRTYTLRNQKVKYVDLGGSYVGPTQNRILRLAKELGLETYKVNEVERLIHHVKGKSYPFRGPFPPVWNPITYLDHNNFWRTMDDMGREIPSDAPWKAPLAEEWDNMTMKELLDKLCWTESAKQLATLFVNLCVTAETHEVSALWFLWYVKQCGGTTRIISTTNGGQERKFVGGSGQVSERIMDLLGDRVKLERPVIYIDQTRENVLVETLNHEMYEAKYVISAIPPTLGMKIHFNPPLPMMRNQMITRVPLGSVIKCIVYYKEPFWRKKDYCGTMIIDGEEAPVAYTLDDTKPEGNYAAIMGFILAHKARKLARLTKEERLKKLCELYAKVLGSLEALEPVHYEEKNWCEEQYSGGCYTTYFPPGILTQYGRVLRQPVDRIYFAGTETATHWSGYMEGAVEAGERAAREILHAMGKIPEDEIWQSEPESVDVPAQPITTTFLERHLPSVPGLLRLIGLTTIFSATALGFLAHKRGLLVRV
UniProt P21397, whole entry: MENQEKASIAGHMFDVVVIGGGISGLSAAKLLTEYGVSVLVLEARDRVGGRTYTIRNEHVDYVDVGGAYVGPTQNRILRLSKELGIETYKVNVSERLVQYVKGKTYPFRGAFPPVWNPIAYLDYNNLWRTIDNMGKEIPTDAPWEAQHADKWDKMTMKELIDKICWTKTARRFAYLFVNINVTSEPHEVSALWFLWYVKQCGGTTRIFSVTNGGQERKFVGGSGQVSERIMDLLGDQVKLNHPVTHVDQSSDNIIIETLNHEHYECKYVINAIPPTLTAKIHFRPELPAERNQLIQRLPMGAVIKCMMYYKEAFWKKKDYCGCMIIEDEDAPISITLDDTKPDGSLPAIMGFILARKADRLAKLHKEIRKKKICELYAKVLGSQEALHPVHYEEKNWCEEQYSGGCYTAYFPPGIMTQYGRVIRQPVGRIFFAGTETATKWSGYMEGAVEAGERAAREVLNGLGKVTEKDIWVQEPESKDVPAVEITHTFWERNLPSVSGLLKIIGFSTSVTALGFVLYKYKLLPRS

What was measured:
MCF7 = test: Antiproliferative activity against human MCF7 cells after 72 hrs by MTS assay; assay type: functional, cell-based; settings: MCF7, 72 h
LSD1/CoREST complex = LSD1/CoREST complex (Homo sapiens, UniProt O60341); test: Inhibition of recombinant human LSD1/CoREST preincubated for 5 mins followed by ART-(N,N-dimethyl-K)-QTARKSTGGKAPRKQLA substrate addition measured after 25 mins by fluorescence assay; assay type: protein-complex assay
[1] = molecular target: Lysine-specific histone demethylase 1A (Homo sapiens) (UniProt O60341); test: Inhibition of LSD1 in human K562 cells assessed as increase in H3K4me2 expression at 10 uM after 48 hrs by Western lot analysis relative to control; assay type: cell-based
[2] = molecular target: Lysine-specific histone demethylase 1A (Homo sapiens) (UniProt O60341); test: Inhibition of LSD1 in human NCI-H526 cells assessed as increase in H3K4me2 marks at promoter of FEZ1 at 100 uM after 48 hrs by ChIP-qPCr method; assay type: cell-based
Method in brief: (§1)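 NCI-H526 small cell lung carcinoma cells treated 48 h at 100 µM alongside an untreated control. Cells formaldehyde cross-linked, nuclei sonicated and chromatin enzymatically digested. IP with H3K4me2 antibody (normal rabbit IgG as negative control) on protein G magnetic beads. Purified DNA quantified by TaqMan qPCR at promoter regions; fold change by comparative CT (Livak). SD from three qPCR wells.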

K562 = test: Antiproliferative activity against human K562 cells after 72 hrs by MTS assay; assay type: functional, cell-based; settings: K562, 72 h
Calu-6 = test: Antiproliferative activity against human Calu6 cells after 72 hrs by MTS assay; assay type: functional, cell-based; settings: Calu-6, 72 h
[3] = molecular target: Lysine-specific histone demethylase 1A (Homo sapiens) (UniProt O60341); test: Inhibition of LSD1 in human NCI-H526 cells assessed as increase in H3K4me2 marks at promoter of IGFBP2 at 100 uM after 48 hrs by ChIP-qPCr method; assay type: cell-based; method in brief: as §1
[4] = molecular target: LSD1/CoREST complex (Homo sapiens) (UniProt O60341+Q9UKL0); test: Inhibition of recombinant human LSD1/CoREST at 500 nM preincubated for 5 mins followed by ART-(N,N-dimethyl-K)-QTARKSTGGKAPRKQLA substrate addition measured after 25 mins by fluorescence assay relative to control
[5] = molecular target: Amine oxidase [flavin-containing] B (Homo sapiens, UniProt P27338); test: Inhibition of MAO-B (unknown origin) by luminescence assay; assay type: ADME
[6] = molecular target: Amine oxidase [flavin-containing] A (Homo sapiens, UniProt P21397); test: Inhibition of MAO-A (unknown origin) by luminescence assay; assay type: ADME
[7] = molecular target: Lysine-specific histone demethylase 1A (Homo sapiens) (UniProt O60341); test: Inhibition of LSD1 in human Calu6 cells assessed as increase in H3K4me2 expression at 10 uM after 48 hrs by Western lot analysis relative to control; assay type: cell-based

## CSCC[C@H](NC(=O)[C@@H](NC(=O)[C@H](CCCNC(=N)N)NC(=O)[C@H](C)N)[C@@H](C)O)C(=O)N[C@H]1CCCCNC(=O)CC[C@@H](C(=O)N[C@@H](C)C(=O)NCC(=O)NCC(=O)N[C@@H](CCCCN)C(=O)N[C@@H](C)C(=O)N2CCC[C@H]2C(=O)N[C@@H](CCCNC(=N)N)C(=O)N[C@@H](CCCCN)C(=O)N[C@@H](CCC(N)=O)C(=O)N[C@@H](CC(C)C)C(=O)N[C@@H](C)C(N)=O)NC(=O)[C@H](CCCCN)NC(=O)[C@H](CCCNC(=N)N)NC(=O)[C@H](C)NC(=O)[C@H]([C@@H](C)O)NC1=O
MCF7
  pIC50: 3.77
LSD1/CoREST complex
  pIC50: 6.97
[1]
  fold change (FC): 2 to 17
[2]
  inhibition: inactive
K562
  pIC50: 3.44
Calu-6
  pIC50: 4.03
[3]
  inhibition: inactive

## CSCC[C@H](NC(=O)[C@H](C)NC(=O)[C@H](CCCNC(=N)N)NC(=O)[C@H](C)N)C(=O)N[C@H]1CCCCNC(=O)CC[C@@H](C(=O)N[C@H](C(=O)NCC(=O)NCC(=O)N[C@@H](CCCCN)C(=O)N[C@@H](C)C(=O)N2CCC[C@H]2C(=O)N[C@@H](CCCNC(=N)N)C(=O)N[C@@H](CCCCN)C(=O)N[C@@H](CCC(N)=O)C(=O)N[C@@H](CC(C)C)C(=O)N[C@@H](C)C(N)=O)[C@@H](C)O)NC(=O)[C@H](CCCCN)NC(=O)[C@H](CCCNC(=N)N)NC(=O)[C@H](C)NC(=O)[C@H]([C@@H](C)O)NC1=O
[4]
  inhibition: 99.2%
MCF7
  pIC50: 3.25
LSD1/CoREST complex
  pIC50: 6.87
[5]
  pIC50: < 4.00
[1]
  fold change (FC): 2.4
[6]
  pIC50: < 4.00
K562
  pIC50: 3.44
[7]
  Activity: inactive
Calu-6
  pIC50: 3.23

pIC50: −log10 of the molar value. Calls of active or inactive are those of the source. No cut-off for these calls is given here.
